Source: patent US20150335677A1, “Argon is a mu opioid receptor antagonist” (priority 2014, published 2015)

The chains behind the UniProt entries cited, without tags or fusion partners.
UniProt Q01827, whole entry: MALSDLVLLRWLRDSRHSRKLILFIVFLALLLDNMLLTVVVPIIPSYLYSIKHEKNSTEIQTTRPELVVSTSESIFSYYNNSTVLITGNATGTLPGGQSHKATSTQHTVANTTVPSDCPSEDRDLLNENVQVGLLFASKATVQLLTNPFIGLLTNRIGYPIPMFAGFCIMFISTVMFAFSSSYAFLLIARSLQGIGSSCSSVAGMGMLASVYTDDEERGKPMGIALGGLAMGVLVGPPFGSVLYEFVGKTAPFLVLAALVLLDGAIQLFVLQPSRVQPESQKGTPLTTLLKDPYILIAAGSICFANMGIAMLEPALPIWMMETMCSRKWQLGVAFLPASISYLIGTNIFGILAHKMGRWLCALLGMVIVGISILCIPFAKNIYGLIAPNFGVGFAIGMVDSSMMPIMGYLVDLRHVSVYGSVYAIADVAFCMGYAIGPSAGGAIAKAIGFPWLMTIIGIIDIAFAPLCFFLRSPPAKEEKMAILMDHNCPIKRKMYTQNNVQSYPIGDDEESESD

Target: T1, type 2 vesicular monoamine transporter (Rattus norvegicus, UniProt Q01827)
T1 construct: Coronal brain slices (400 μm thickness) including the nucleus accumbens; from tissue; host or cells: rat nucleus accumbens brain slices
Assay: Carrier-mediated and KCl-evoked dopamine release in nucleus accumbens brain slices with amphetamine
Assay type: cell-based
Description: Rats were killed by decapitation and the brains were carefully removed and placed in ice-cold artificial cerebrospinal fluid (aCSF). Coronal brain slices (400 μm thickness) including the nucleus accumbens (anteriority: −1.2 to +2 mm from the bregma) were cut using a tissue chopper. Before being used, brain slices (n=4 per condition) were allowed to recover at room temperature for 1 hour in oxygenated a CSF. Slices were then placed in a recording chamber (1 mL volume) at 34.5±0.5° C. and superfused at a flow rate of 1 mL/min with aCSF in the presence of amphetamine and air (nitrogen 75 vol %+oxygen 25 vol %) or argon at 75 vol % (with the remainder being oxygen). Control slices were treated with saline solution and air. Carrier-mediated and depolarization-dependent (KCl: 100 mM) dopamine release in the nucleus accumbens were monitored using a polarograph and standard glass-encased nafion-precoated carbon fiber electrodes (David H. N. et al., Biol. Psych., 2006). For each experimental condition (saline+air, amphetamine+air, amphetamine+argon), changes in dopamine release were calculated using each slice as its own control as illustrated in FIG. 1A: changes in carrier-mediated dopamine release were calculated as [B2−B1], [B3−B1], and [B4−B1]; Peak 2 (P2) and Peak 3 (P3) KCl-evoked dopamine responses were calculated as a percentage change from Peak 1 (P1) KCl-evoked dopamine release taken as a 100% value. Therefore, in the experiments with argon, argon was only administered after Peak 1 (P1) KCl-evoked dopamine release had returned to baseline (B2).

[1] = amphetamine + air compared to sham slices with saline solution + air

Structure (SMILES): CC(N)Cc1ccccc1 (stereo not drawn) [amphetamine, reference compound]
- Peak 3 (P3) KCl-evoked dopamine release [1]: decrease of Peak 3 (P3) KCl-evoked dopamine release
- carrier-mediated dopamine release [1]: increase in carrier-mediated dopamine release
- effect on Peak 2 KCl-evoked dopamine release (amphetamine in the presence of air or argon, KCl 100 mM): lack of effect
